Data from patent publication US5914235A (Eli Lilly and Company, priority 1997, dated 1999).

Protein sequences, listed by entry. Tags and fused reporters are not part of them. Residues count along the entry.
UniProt P27338, 2-520 limits assumed: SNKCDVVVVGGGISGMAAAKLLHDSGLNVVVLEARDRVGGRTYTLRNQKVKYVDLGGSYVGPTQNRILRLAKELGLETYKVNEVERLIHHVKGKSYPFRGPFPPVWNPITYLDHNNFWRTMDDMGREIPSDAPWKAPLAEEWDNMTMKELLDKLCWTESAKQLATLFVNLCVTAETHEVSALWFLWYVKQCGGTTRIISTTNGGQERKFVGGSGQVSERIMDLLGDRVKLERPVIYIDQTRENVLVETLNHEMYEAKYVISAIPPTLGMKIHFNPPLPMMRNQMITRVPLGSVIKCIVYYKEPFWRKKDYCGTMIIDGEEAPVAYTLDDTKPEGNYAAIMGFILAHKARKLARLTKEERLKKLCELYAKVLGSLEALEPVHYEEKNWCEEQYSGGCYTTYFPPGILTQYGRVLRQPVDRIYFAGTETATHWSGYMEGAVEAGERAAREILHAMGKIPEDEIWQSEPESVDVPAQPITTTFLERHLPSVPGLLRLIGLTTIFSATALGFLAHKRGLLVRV

Experiments:
[^3 H]BFI binding sites [1] = target: T1, [^3 H]BFI binding sites (Homo sapiens, UniProt P27338)
[^3 H]BFI binding sites [2] = target: T1, [^3 H]BFI binding sites; remark: listed apart in the source
[3] = target: [^3 H]BFI binding sites (I2 binding site); conditions: human cortex, 8 nM [^3 H]BFI, two-site fit

Compound: N[C@@H]1C[C@H]1c1ccccc1 (relative stereo) [TCP, Tranylcypromine]
- TCP concentrations that inhibited [^3 H]BFI binding ([^3 H]BFI binding sites [1]; free TCP present during incubation): > 10 µM
- TCP concentration of maximal effect on [^3 H]BFI binding ([^3 H]BFI binding sites [1]; free TCP present during incubation, 8 nM [^3 H]BFI, human cortex or NRL): 0.3 µM
- TCP concentration of maximal potentiation of [^3 H]BFI binding ([^3 H]BFI binding sites [1]; free TCP present during incubation, human brain): 300 nM
- Potentiation of [^3 H]BFI binding in human brain ([^3 H]BFI binding sites [1]; human cortex / NRL): markedly potentiated; also recorded: dramatically enhanced
- Decrease in KD for [^3 H]BFI binding in the presence of TCP ([^3 H]BFI binding sites [1]; human cortex, 100 nM TCP): 3 fold
- Increase in Bmax for [^3 H]BFI binding in the presence of TCP ([^3 H]BFI binding sites [1]; human cortex, 100 nM TCP): 4-7 fold
- TCP concentration of maximal potentiation of [^3 H]BFI binding ([^3 H]BFI binding sites [1]; membranes preincubated with TCP, then washed to remove free TCP, human cortex): 1000 nM
- Potentiation of BFI binding sites in human platelets ([^3 H]BFI binding sites [2]): potentiated

Compound: C#CCN(C)CCCOc1ccc(Cl)cc1Cl [clorgyline]
- Ki ([3]; read-out: Ki for competition of [^3 H]BFI binding, two-site model, first (high-affinity) value): 27.8 nM
- Ki ([3]; read-out: Ki for competition of [^3 H]BFI binding, two-site model, second (low-affinity) value): 3700 nM

Compound: NNCCc1ccccc1 [phenelzine]
- Potentiation of [^3 H]BFI binding in human brain ([^3 H]BFI binding sites [1]): small potentiation
- Potentiation of [^3 H]BFI binding in human cortex ([^3 H]BFI binding sites [1]): slight potentiation; also recorded: slight increase

“Also recorded” adds a separate entry of the source. Read-outs that look alike come from different tables or passages of the source.
